PubChem BioAssay (Tox21)
The list shows a part of the results, in another mix than the full data. Results filed as inconclusive are left out. Activity calls are given as the source filed them. Unless noted, calls follow the shape of the dose curve; as a rule, active = well fitted curve in the direction sought with a large enough effect in the repeat runs; inconclusive = weak or mixed curves; inactive = no such curve, though single readings can be large; an effect the other way counts as inactive or inconclusive.

Protein sequences, listed by entry. Tags and fused reporters are not part of them.
UniProt P16473, whole entry: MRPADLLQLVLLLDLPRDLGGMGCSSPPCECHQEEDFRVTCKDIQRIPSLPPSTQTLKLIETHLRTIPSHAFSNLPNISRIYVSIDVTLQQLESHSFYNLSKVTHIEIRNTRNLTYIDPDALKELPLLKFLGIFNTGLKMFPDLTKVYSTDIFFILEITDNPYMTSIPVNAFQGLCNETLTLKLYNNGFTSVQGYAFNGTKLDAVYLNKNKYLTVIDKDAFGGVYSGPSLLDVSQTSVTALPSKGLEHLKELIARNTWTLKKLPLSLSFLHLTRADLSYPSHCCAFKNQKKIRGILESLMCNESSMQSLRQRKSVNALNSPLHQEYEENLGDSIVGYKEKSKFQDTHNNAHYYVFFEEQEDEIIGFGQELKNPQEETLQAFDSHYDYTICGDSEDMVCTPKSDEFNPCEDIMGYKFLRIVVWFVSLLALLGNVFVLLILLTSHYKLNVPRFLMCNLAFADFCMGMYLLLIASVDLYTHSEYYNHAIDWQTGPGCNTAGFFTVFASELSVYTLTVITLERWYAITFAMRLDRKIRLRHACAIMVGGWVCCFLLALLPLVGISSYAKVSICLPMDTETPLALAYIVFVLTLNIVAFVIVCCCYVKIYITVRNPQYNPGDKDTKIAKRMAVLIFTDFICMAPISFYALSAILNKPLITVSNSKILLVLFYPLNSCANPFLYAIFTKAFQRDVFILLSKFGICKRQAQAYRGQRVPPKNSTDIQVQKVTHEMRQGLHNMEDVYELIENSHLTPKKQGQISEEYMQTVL
UniProt O75469, whole entry: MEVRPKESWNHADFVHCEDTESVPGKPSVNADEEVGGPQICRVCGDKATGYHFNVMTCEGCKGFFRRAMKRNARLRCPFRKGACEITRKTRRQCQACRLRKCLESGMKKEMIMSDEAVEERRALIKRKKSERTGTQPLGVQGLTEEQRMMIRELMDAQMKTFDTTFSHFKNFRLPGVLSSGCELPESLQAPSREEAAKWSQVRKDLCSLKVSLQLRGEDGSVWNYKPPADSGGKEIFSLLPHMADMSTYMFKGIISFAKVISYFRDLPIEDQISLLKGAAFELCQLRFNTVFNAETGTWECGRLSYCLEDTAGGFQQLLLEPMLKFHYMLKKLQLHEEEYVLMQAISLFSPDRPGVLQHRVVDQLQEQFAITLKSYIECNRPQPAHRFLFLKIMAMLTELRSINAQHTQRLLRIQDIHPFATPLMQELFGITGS

Tests used:
[1] = target: Nuclear receptor ROR-gamma (Homo sapiens) (UniProt P51449); experiment: qHTS assay to identify small molecule antagonists of the retinoid-related orphan receptor gamma (ROR-gamma) signaling pathway (AID 1159521; also: nearly all actives have a fitted effect of over 50% in size); settings: Tet-on RORgamma CHO cells, RORE-luciferase, 16 h
[2] = qHTS assay to identify small molecule antagonists of the retinoic acid receptor (RAR) signaling pathway (AID 1159552; also: nearly all actives have a fitted effect of over 50% in size); settings: C3RL4 RARE luciferase reporter, retinol-stimulated, 6 h
Method in brief: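 RARE-luc C3RL4 cells; cpds + 1 uM (final) retinol, 6 hr, 37 C/5% CO2; luciferase reagent, 30 min RT, luminescence readout. Inhibitors of retinol-driven signal scored.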

[3] = qHTS assay to identify small molecule agonists of the constitutive androstane receptor (CAR) signaling pathway - cell viability counter screen (AID 1224836); settings: HepG2-CYP2B6-hCAR viability, CellTiter-Fluor, 23 h, PK11195 added to every well; series mostly up to 92.4 µM; also: nearly all actives have a fitted effect of over 45% in size
Method in brief: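 HepG2 cells stably carrying hCAR and a CYP2B6-2.2kb reporter were plated 4 h, then given compounds at 15 concentrations plus PK11195 (final 0.75 uM). After 23 h at 37 C, viability was read by CellTiter-Fluor fluorescence.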

[4] = qHTS assay to identify small molecule antagonists of the constitutive androstane receptor (CAR) signaling pathway - cell viability counter screen (AID 1224837); settings: HepG2-CYP2B6-hCAR viability, CellTiter-Fluor, 23 h, co-treated with 50 nM CITCO; series mostly up to 92.4 µM; also: nearly all actives have a fitted effect of over 45% in size
Method in brief: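 Using CellTiter-Fluor, viability is scored in HepG2 cells stably carrying hCAR and a 2.2kb CYP2B6 reporter after 23 hr compound exposure across 15 concentrations, with CITCO present at 50 nM.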

[5] = target: Thyrotropin receptor (Homo sapiens) (UniProt P16473); experiment: qHTS assay to identify small molecule agonists of the thyroid stimulating hormone receptor (TSHR) signaling pathway (AID 1224843; calls by dose curve; also: nearly all actives have a fitted effect of over 45% in size); settings: TSHR-HEK293 cells, cAMP HTRF, agonist mode, 30 min
[6] = qHTS assay to identify small molecule agonists of H2AX (AID 1224845; active = well fitted activation curve with a large enough effect in the signal ratio in the repeat runs, not every such curve was filed as active; the % refers to the signal ratio); settings: CHO-K1 phospho-H2AX Ser139 HTRF, 3 h
Method in brief: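 Wild-type CHO-K1 cells plated overnight, then exposed 3 hr at 37C to compounds at 15 concentrations (0.76% DMSO). Lysed, then HTRF anti-pH2AX(S139)-cryptate/anti-H2AX-d2 detection after 24 hr at room temperature; emissions 665 and 620 nm.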

[7] = qHTS assay to identify small molecule HDAC inhibitors (AID 1259364); settings: HCT-116 HDAC-Glo I/II luminescence, 2 h;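 also: wild-type HCT-116 cells with endogenous class I/II HDAC activity; nearly all actives have a fitted effect of over 45% in size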
Method in brief: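 Relative class I and II HDAC activity is taken from the luminogenic signal in HCT-116 cells, with compound exposure 2 hr and reagent development 30 min at room temperature.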

[8] = qHTS assay to identify small molecule agonists of the sonic hedgehog signaling (Shh) pathway - cell viability counter screen (AID 1259366); settings: NIH/3T3 Gli1-Luc viability, CellTiter-Fluor, 24 h; also: nearly all actives have a fitted effect of over 50% in size
Method in brief: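 NIH/3T3-derived 3T3 Gli1-Luc cells (stable Gli1-responsive firefly luciferase reporter) were seeded, rested 4 hr at 37 C/5% CO2, then exposed to compounds in DMSO for 24 hr; viability was read by CellTiter-Fluor fluorescence in the same wells.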

[9] = qHTS assay to identify small molecule antagonists of the sonic hedgehog signaling (Shh) pathway - cell viability counter screen (AID 1259367); settings: NIH/3T3 Gli1-Luc viability, CellTiter-Fluor, 24 h; also: nearly all actives have a fitted effect of over 55% in size
Method in brief: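 NIH/3T3-derived Gli1-Luc reporter cells (2,000 per well) rested 4 hr at 37 C, then received DMSO compounds plus conditioned medium. After 23 hr of treatment, CellTiter-Fluor was added for 1 hr at 37C and fluorescence read.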

[10] = qHTS assay to identify small molecule agonists of the androgen receptor (AR) signaling pathway in the presence of an antagonist - cell viability counter screen (AID 1259379); settings: MDA-kb2 viability, CellTiter-Fluor, 16 h; also: nearly all actives have a fitted effect of over 25% in size
Method in brief: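 A CellTiter-Fluor read-out measured viability of MDA-kb2 reporter cells (MMTV promoter with AR and GR response elements). Treatment: nilutamide 3.0uM final with compounds at 15 concentrations, 16 hr, 37C, 0% CO2.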

[11] = qHTS assay to identify small molecule agonists of the estrogen receptor beta (ER-beta) signaling pathway - cell viability counter screen (AID 1259380); settings: ER-beta-bla HEK293T viability, CellTiter-Glo luminescence, 16 h; also: nearly all actives have a fitted effect of over 30% in size
Method in brief: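 Cells used were ER-beta-UAS-bla HEK293T in medium with 2% charcoal-stripped FBS. They were treated for 16 hr at 37C. Viability came from CellTiter-Glo luminescence.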

[12] = qHTS assay to identify small molecule agonists of the estrogen receptor alpha (ER-alpha) signaling pathway in the presence of an antagonist - cell viability counter screen (AID 1259386); settings: VM7Luc4E2 viability, CellTiter-Fluor fluorescence, 22 h; series mostly up to 92.4 µM;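 also: cells exposed to compounds for 22 h at 37 °C before the viability read; nearly all actives have a fitted effect of over 30% in size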
Method in brief: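 ICI-182,780 at 10.0nM final accompanies the compound titration (15 concentrations, 22hr, 37C) on VM7Luc4E2 cells. The CellTiter-Fluor fluorescence readout runs in the same wells as the luciferase assay.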

[13] = Caspase-3/7 induction in CHO-K1 cells by small molecules, qHTS cell viability counter screen (AID 1346979); settings: CellTiter-Fluor fluorescence, 17 h; series mostly up to 92.4 µM; also: nearly all actives have a fitted effect of over 35% in size
Method in brief: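 Wild-type CHO-K1 cells were seeded at 1,500 per well, rested 5hr at 37 C, then exposed to compounds in DMSO. After 16hr, CellTiter-Fluor reagent was added and fluorescence read 1hr later as the viability measure.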

[14] = Caspase-3/7 induction in HepG2 cells by small molecules, qHTS cell viability counter screen (AID 1346981); settings: CellTiter-Fluor fluorescence, 17 h; also: nearly all actives have a fitted effect of over 30% in size
Method in brief: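 Multiplexed with the caspase-3/7 assay: HepG2 cells, 16 hr compound treatment, CellTiter-Fluor viability detection by fluorescence.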

[15] = target: Nuclear receptor subfamily 1 group I member 2 (Homo sapiens) (UniProt O75469); experiment: Human pregnane X receptor (PXR) small molecule agonists, qHTS assay (AID 1346982); settings: PXR-Luc HepG2, CYP3A4 luciferase reporter, 24 h; also: nearly all actives have a fitted effect of over 35% in size
Method in brief: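 We seeded PXR-Luc HepG2 cells in assay medium containing 5% charcoal-stripped FBS, added compounds 5 hr later, incubated 24 hr, and read luminescence with ONE-Glo reagent.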

Measured: Potency
Potency is read from the fitted curve at half-maximal effect.

O=[N+]([O-])c1ccc([N+](=O)[O-])cc1
active: [1] 61.1 µM | [2] 30.6 µM | [3] 61.1 µM | [4] 54.5 µM | [5] 61.1 µM | [6] 101 µM | [7] 54.5 µM | [8] 54.5 µM | [9] 54.5 µM | [10] 61.1 µM | [11] 43.3 µM | [12] 61.1 µM | [13] 43.3 µM | [14] 54.5 µM | [15] 43.3 µM
